The numbers were not newly measured in patent US20260210975A1, “DIAGNOSIS AND TREATMENT OF LONG-COVID” (priority 2022, published 2026), which cites them from elsewhere.

The chains behind the UniProt entries cited, without tags or fusion partners. Where a name states a change or a piece, a line headed by the entry shows the natural chain unless it says otherwise.
UniProt Q12809: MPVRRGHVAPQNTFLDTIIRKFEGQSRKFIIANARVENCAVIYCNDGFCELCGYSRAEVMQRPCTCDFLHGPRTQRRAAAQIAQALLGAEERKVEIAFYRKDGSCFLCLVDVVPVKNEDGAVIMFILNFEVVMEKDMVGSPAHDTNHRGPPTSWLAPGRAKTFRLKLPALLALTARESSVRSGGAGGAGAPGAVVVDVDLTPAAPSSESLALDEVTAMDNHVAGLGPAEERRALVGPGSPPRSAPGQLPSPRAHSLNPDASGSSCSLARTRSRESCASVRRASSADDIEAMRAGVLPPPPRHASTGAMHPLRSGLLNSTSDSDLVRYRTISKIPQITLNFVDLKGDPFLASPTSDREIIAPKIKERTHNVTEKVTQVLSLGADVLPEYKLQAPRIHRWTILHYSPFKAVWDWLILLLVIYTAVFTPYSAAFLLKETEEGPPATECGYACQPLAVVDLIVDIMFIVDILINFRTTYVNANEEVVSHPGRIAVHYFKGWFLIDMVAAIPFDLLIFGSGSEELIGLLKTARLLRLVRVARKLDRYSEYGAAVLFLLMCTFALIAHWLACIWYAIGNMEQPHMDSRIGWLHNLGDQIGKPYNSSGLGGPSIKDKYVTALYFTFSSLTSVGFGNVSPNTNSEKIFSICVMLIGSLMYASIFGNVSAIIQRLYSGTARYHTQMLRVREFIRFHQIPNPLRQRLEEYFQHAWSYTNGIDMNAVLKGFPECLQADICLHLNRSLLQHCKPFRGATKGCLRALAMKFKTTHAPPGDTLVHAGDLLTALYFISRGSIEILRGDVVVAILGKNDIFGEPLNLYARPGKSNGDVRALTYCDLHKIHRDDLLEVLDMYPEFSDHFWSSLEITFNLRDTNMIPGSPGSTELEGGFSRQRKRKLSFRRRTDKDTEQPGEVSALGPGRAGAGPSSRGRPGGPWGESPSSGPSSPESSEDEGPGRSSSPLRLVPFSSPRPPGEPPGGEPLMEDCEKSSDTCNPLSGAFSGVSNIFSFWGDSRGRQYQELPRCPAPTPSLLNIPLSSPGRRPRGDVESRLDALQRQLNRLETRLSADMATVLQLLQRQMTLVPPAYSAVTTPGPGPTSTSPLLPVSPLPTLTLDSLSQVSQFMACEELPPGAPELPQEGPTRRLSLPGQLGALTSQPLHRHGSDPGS

The IC50 is the midpoint of a concentration-inhibition curve.

For this data set, the target named is KCNH2 (Homo sapiens, UniProt Q12809).

`O=C1Cc2cc(CCN3CCN(c4nsc5ccccc45)CC3)c(Cl)cc2N1` [ziprasidone]: the IC50 is around 169 nM.
